Assay outcomes (PubChem BioAssay)
In the library only some 1.1% were active in any assay of this set; here they are far more common.
PINK1 expr mod – changes PINK1 expression. PINK1 immunofluorescence, high-content cytometry, 24 h. Potency, µM (titrated, usually from 76.6 µM), without a hit: top-dose activation (PINK1 increase), usual class: activators. hit rate 0.2% among 410,000; active = well fitted activation curve with a large enough effect; inconclusive = small, poorly fitted or top-dose-only effect; cell line not stated here; note: potency is the fitted concentration of half-maximal effect; % of control where 0% means no effect; nearly all actives have a fitted effect of over 65% in size
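Measures PINK1 amount and localization on or inside mitochondria by immunofluorescence. Stable cells get compounds at 5 concentrations for 24 hours before fixation and staining; CCCP controls included.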
TrxR1 inh – blocks rat thioredoxin reductase 1; hit rate 1% among 390,000; AID 588453; Potency, µM (series often up to 114 µM), for inactives: top-dose activity change, negative = inhibition, hits mostly inhibitors; recombinant rTrxR1, NADPH fluorescence consumption, selenite substrate; note: potency is the fitted concentration of half-maximal effect; % is set by controls: 0 for no effect and ±100 for the full control effect; nearly all actives have a fitted effect of over 65% in size
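Rat TrxR1 (90 nM in the dispensed reagent) was pre-reduced with 400 uM NADPH for 5 min at room temperature, then incubated with compound for 15 min. After 400 uM selenite was added, NADPH fluorescence (Ex 340/Em 450 nm) was followed for 8 min.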
miR-21 reporter – raises the signal of a miR-21 reporter; AID 2288; 340,000 tested, under 10 active; Potency, µM (doses to about 38.3 µM), inactives show at the top dose reporter change, positive = more light; HeLa miR-21 FLuc reporter, luciferase, 48 h; active = well fitted rising curve with a large enough effect; inconclusive = small, poorly fitted or top-dose-only effect; inactive = no such curve, though single readings can be large or run the other way;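 note: % of control where 0% means no effect; miR-21 action dims this reporter so a rising signal means less miR-21 action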
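HeLa cells stably expressing CMV-driven firefly luciferase with a downstream miR-21 binding sequence, endogenously expressing miR-21, were treated with titrations (up to about 40uM final) for 48 hours at 37 degree Celsius. Luciferase luminescence was read after lysis.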
TrxR1 substrate – rat thioredoxin reductase 1 substrate activity | O89049 | purified TrxR1 substrate turnover, NADPH consumption readout | Potency, µM (titrated, usually from 114 µM), inactives show top-dose activity change, negative = substrate turnover | hit rate 0.01% among 390,000 | AID 588456; note: potency is the fitted concentration of half-maximal effect; % is set by controls: 0 for no effect and ±100 for the full control effect; nearly all actives have a fitted effect of over 50% in size
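Rat TrxR1, dispensed at 90 nM, was prereduced with 400 uM NADPH (final) for 5 min at ~22 deg C, then incubated with compound 15 min before 400 uM selenite. A first-read NADPH fluorescence drop versus no-compound background flagged substrates.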
GALK inhibitor – galactokinase (human) inhibition. Purified GALK, Kinase-Glo residual ATP luminescence. hit rate 0.007% among 270,000. Potency, µM (doses to about 57.5 µM), inactives show at the top dose activity change, negative = inhibition, usual class: inhibitors. AID 1868. P51570; note: potency is the fitted concentration of half-maximal effect; % is set by controls: 0 for no effect and ±100 for the full control effect
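Human GALK (5 nM) with 35 uM ATP and 100 uM galactose in 20 mM HEPES pH 8.0, 5 mM MgCl2, 60 mM NaCl, 1 mM DTT, 0.01% BSA. After 1 h at room temperature, leftover ATP was read by Kinase-Glo Plus luminescence.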
Active calls of the source: *; ? = inconclusive; · = not tested or not shown; [ ] = remark or other dose. Unless noted, calls come from the whole dose curve; as a rule, active = well fitted curve in the direction sought with a large enough effect; inconclusive = small, poorly fitted or top-dose-only effect, or another doubt; inactive = no such curve, though single readings can be large; an effect the other way counts as inactive or inconclusive.

| compound | PINK1 expr mod | TrxR1 inh | miR-21 reporter | TrxR1 substrate | GALK inhibitor |
| --- | --- | --- | --- | --- | --- |
| O=C(N/N=C/C=C/c1ccco1)/C(=C/c1ccccc1)NC(=O)c1ccccc1 | 4% | 20µM* | -6% | -7%[57.1 µM] | -1% |
| CC(/C=C/c1ccco1)=N\NC(=O)c1cccc(Cl)c1 | 0% | ? | -30% | -18% | -3% |
| CCC1CN(Cc2cn[nH]c2-c2ccccc2)Cc2cc(OC)ccc2O1 (stereo not drawn) | 1% | · | · | · | · |
| O=S(=O)(c1ccc(-c2csc(=Nc3ccc(OC(F)(F)Cl)cc3)n2CCCO)cc1)N1CCCC1 | 7% | 11% | ? | 2% | · |
| Brc1ccc(-c2cn3cc(Cc4ccccc4)sc3n2)cc1 | 1% | 24% | -64% | 8% | · |
| COc1cc(/C=C2/SC(=S)N(Cc3ccccc3)C2=O)cc(Cl)c1O | 8% | 5%[57.1 µM] | 4% | 13%[57.1 µM] | -2% |
| COc1cc([N+](=O)[O-])cc(/C=C2/SC(=S)N(Cc3ccccc3)C2=O)c1O | 35µM* | -15%[2.29 µM] | 19% | -1%[57.1 µM] | -18% |
| O=C1/C(=C/c2ccc(O)c([N+](=O)[O-])c2)SC(=S)N1Cc1ccccc1 | 32µM* | 19% | 1% | 0% | -23% |
| CCCS(=O)(=O)c1c(S(=O)(=O)CCC)c2ccccn2c1C(=O)OC | 9%[38.3 µM] | 40µM* | -12% | 12% | 2% |
| CCCS(=O)(=O)c1c(S(=O)(=O)CCC)c2c(C)cccn2c1C(=O)OC | · | 25µM* | -1% | 14% | · |
| CCCS(=O)(=O)c1c(S(=O)(=O)CCC)c2cc(CC)ccn2c1C(=O)OC | -1% | -11% | 9% | 17% | -1% |
| CCCS(=O)(=O)c1c(S(=O)(=O)CCC)c2c3ccccc3ccn2c1C(=O)OC | 0% | -3% | 17% | 25% | 0% |
| COc1ccc(-c2nc3c(=O)n(C)c(=O)nc-3n(C)n2)cc1 | 0% | ? | · | ? | · |
| Cn1nc(-c2ccc(F)cc2)nc2c(=O)n(C)c(=O)nc1-2 | -1% | 28µM* | · | 22µM* | · |
| Cn1nc(-c2ccc(Cl)cc2)nc2c(=O)n(C)c(=O)nc1-2 | 7% | ? | ? | 18µM* | 1.1µM* |
| CCOC(=O)c1c(C)oc2nc(C)nc(NCCc3ccc(OCC)c(OCC)c3)c12 | -1% | 22% | 1% | -9% | · |
| O=[N+]([O-])c1cc(C(F)(F)F)ccc1NCCNC(=S)Nc1ccc(Cl)cc1 | 13µM* | 0% | ? | -5% | -5% |
| CNC(=S)Nc1cccc([N+](=O)[O-])c1 | -1% | -21% | -1% | -5% | 4% |
| Cc1cc(Br)ccc1NC(=S)Nc1cccc([N+](=O)[O-])c1 | 40µM* | ? | 1% | -7% | 1% |
| CCN(CC)c1ccc(NS(=O)(=O)c2ccc(-c3coc(C)n3)cc2)c(C)c1 | -3% | 15%[57.1 µM] | 11% | -2%[57.1 µM] | · |
| COc1cc(/C=C2\C(=O)N(c3ccccc3)N=C2C)ccc1Oc1ccc([N+](=O)[O-])cc1[N+](=O)[O-] | 1% | ? | -15% | -3% | 1% |
| CC1=NN(c2ccccc2)C(=O)/C1=C\c1ccc(Oc2ccc([N+](=O)[O-])cc2[N+](=O)[O-])cc1 | 9% | 4µM* | 3% | 1%[57.1 µM] | 3% |
| COc1cc2nc(CN(CCO)C3CS(=O)(=O)CC3O)nc(N3CCCCC3)c2cc1OC (stereo not drawn) | 0% | · | · | · | · |
| COc1ccc(C=NNC(=O)CCCCC(=O)NN=Cc2ccc(OC)cc2)cc1 | 6% | 2% | · | -1% | · |
| COC(=O)/C=C\C(C#N)(C#N)N=Cc1ccc(OC)cc1 | 2% | 2.2µM* | · | -5% | · |
| O=C1CSC(=S)N1N=Cc1ccccc1O | -5% | 0%[11.4 µM] | · | 10%[11.4 µM] | · |
| O=C1CSC(=S)N1/N=C/c1cc(Br)c(O)c(Br)c1 | 5% | 79µM* | -1% | -15% | -21% |
| Cc1ccccc1/C=N/N1C(=O)CSC1=S | 0% | 35µM* | -4% | -5% | -3% |
| O=C1CSC(=S)N1/N=C/c1ccc2c(c1)OCCO2 | 0% | 79µM* | -28% | 4% | 4% |
| O=C1CSC(=S)N1/N=C/c1ccc(Cl)c([N+](=O)[O-])c1 | · | · | 0% | · | -1% |
| COc1cc(/C=N/N2C(=O)CSC2=S)ccc1O | 1% | 32µM* | -3% | -14% | -2% |
| CCOC(=O)c1c(C)c(C(=O)NCCc2ccc(OC)cc2)c(C)n1CC | 4% | 10% | -1% | -1% | · |
| C(=C\c1cnc2ccccc2n1)/c1ccc2c(c1)OCO2 | 2% | 25% | · | 5% | · |
| COC(=O)c1cc(NC(=O)c2cc3sccc3n2Cc2ccc(Cl)cc2)cc(C(=O)OC)c1 | 1% | 25% | 5% | 4% | · |
| Cc1ccnc(NC(c2ccccc2)c2ccc3cccnc3c2O)c1 (stereo not drawn) | 2% | -77%[57.1 µM] | · | 9%[57.1 µM] | · |
| COc1ccccc1NC(c1cccnc1)c1ccc2cccnc2c1O (stereo not drawn) | 0% | 0.71µM* | -2% | -6% | 1% |
| O=C(O)c1ccccc1NC(c1ccccc1)c1ccc2cccnc2c1O (stereo not drawn) | -1% | ? | · | 10%[11.4 µM] | · |
| Cc1ccnc(NC(c2cccnc2)c2ccc3cccnc3c2O)c1 (stereo not drawn) | -1% | 3.5µM* | 25% | 5% | 0% |
| Cc1ccnc(NC(c2cc(C)ccc2O)c2ccc3cccnc3c2O)c1 (stereo not drawn) | 1% | 5µM* | 21% | 3% | · |
| Oc1cc(-c2nc3ccccc3s2)cc2c1OCCN(Cc1cn[nH]c1-c1ccc(Cl)cc1)C2 | 0% | · | · | · | · |

Filtered by structure: the compounds so far containing an NH in an aromatic ring (2)
| compound | PINK1 expr mod | TrxR1 inh | miR-21 reporter | TrxR1 substrate | GALK inhibitor |
| --- | --- | --- | --- | --- | --- |
| CCC1CN(Cc2cn[nH]c2-c2ccccc2)Cc2cc(OC)ccc2O1 (stereo not drawn) | 1% | · | · | · | · |
| Oc1cc(-c2nc3ccccc3s2)cc2c1OCCN(Cc1cn[nH]c1-c1ccc(Cl)cc1)C2 | 0% | · | · | · | · |

Arranged by count of non-hydrogen atoms (low to high): part of the list above
| compound | PINK1 expr mod | TrxR1 inh | miR-21 reporter | TrxR1 substrate | GALK inhibitor |
| --- | --- | --- | --- | --- | --- |
| O=C1CSC(=S)N1/N=C/c1ccc(Cl)c([N+](=O)[O-])c1 | · | · | 0% | · | -1% |
| CCOC(=O)c1c(C)oc2nc(C)nc(NCCc3ccc(OCC)c(OCC)c3)c12 | -1% | 22% | 1% | -9% | · |
| COc1cc(/C=C2\C(=O)N(c3ccccc3)N=C2C)ccc1Oc1ccc([N+](=O)[O-])cc1[N+](=O)[O-] | 1% | ? | -15% | -3% | 1% |

The results go on.
| compound | PINK1 expr mod | TrxR1 inh | miR-21 reporter | TrxR1 substrate | GALK inhibitor |
| --- | --- | --- | --- | --- | --- |
| O=c1c(C(c2ccccc2)c2c(O)nc3n(c2=O)CCS3)c(O)nc2n1CCS2 | 1% | 7.1µM* | -9% | -3% | · |
| O=c1c(C(c2ccccc2)c2c(O)nc3n(c2=O)CCCS3)c(O)nc2n1CCCS2 | 1% | ? | 1% | 3% | 2% |
| O=c1c(C(c2ccc(F)cc2)c2c(O)nc3n(c2=O)CCCS3)c(O)nc2n1CCCS2 | 1% | 14µM* | -1% | -4% | 9% |
| CCN(CCCNC(=O)c1ccc(Sc2ccc(Cl)cc2)c(NC(C)=O)c1)c1ccccc1 | 1% | -19%[57.1 µM] | 21% | -10%[57.1 µM] | · |
| Cc1ccc(CNC(=O)CCn2cnc3ccccc3c2=O)cc1 | 1% | 7%[57.1 µM] | 7% | -2%[57.1 µM] | · |
| Nc1nc(Nc2ccccc2)nc2c1ncn2[C@@H]1O[C@H](CO)[C@H](O)[C@H]1O | · | 1% | · | · | · |
| Clc1nc(CN2CCOCC2)nc2sc3c(c12)CCC3 | 0% | 3% | -3% | 5% | 1% |
| Cc1sc2nc(CN3CCCCC3)nc(Cl)c2c1C | -2% | 32µM* | -23% | 2% | 0% |
| Cc1ccc(S(=O)(=O)N2CCN(c3nc(CN4CCCC4)nc4sc(C)c(C)c34)CC2)cc1 | 1% | 3% | · | 1% | · |
| CC1CCN(Cc2nc(Cl)c3c4c(sc3n2)CCC4)CC1 | 0% | 32µM* | -1% | 1% | -1% |
| Clc1nc(CN2CCCCC2)nc2sc3c(c12)CCCC3 | 12% | 4µM* | -3% | 11% | 3% |
